# Tested on: Huh7 tumor-bearing BALB/c nude mice xenografts
# Test: Growth inhibition of Huh7 xenografts in BALB/c nude mice
# Conditions: mouse
# Description: On day 0, Huh7 cells were cultured in DMEM medium containing 10% of fetal bovine serum, 100 U of penicillin, and 100 μg/mL of streptomycin. And cultured in an incubator of 37° C., 5% CO2.
# Each mouse was inoculated subcutaneously in the right axilla with 150 μL of cell suspension (5.0×10^6 cells/mouse) under sterile conditions. On day 12 after inoculation, when the tumor grew to a volume of 200-300 mm^3, mice with similar tumor volume and good shape were selected (the shape was as single spherical as possible, no irregular shape or multiple tumors gathered together) and divided into 5 groups, each group had 9 mice.
# Each group of animals was administrated (intraperitoneal injection (ip) or oral administration (po)) a test substance twice a day (bid) at a fix time per day according to the body weight of the animals. The first dose was administered on the day of grouping ([…]), and continued for 22 days, the body weight of the animals was recorded daily.
# The formation of tumor in the inoculated part of each group of animals was observed. The long diameter (Y) and short diameter (X) of the tumor nodules were measured twice a week using vernier calipers and calculated according to the following formula: Volume of tumor nodules(V):V=(X^2Y)/2. […]
# The relative tumor volume (RTV) is calculated as: RTV=100×TVt/TVinitial […]
structure (smiles),measurement,value
"C=CC(=O)Nc1cc(N2CCN(CC)C3(CC3)C2)ccc1Nc1cc(N(C)C(=O)Nc2c(Cl)c(OC)cc(OC)c2Cl)ncn1 [Example 5, N-(2-((6-(3-(2,6-Dichloro-3,5-dimethoxyphenyl)-1-methylureido)pyrimidin-4-yl)amino)-5-(4-ethyl-4,7-diazaspiro[2.5]octan-7-yl)phenyl)acrylamide]",growth inhibitory effect against the in vivo tumor model in mice established based on Huh-7 cells,significant growth inhibitory effect
same,in vivo activity compared with the compound of Example 108 of WO2015057938,superior to that of the compound of Example 108 of WO2015057938

# From US11001572B2, “Pyrimidine derivative, method for preparing same and use thereof in medicine” (Zhejiang Hisun Pharmaceutical Co., Ltd., priority 2016, dated 2021)
